From ChEMBL document CHEMBL6083287, “Development of Potent and Selective Inhibitors of Methylenetetrahydrofolate Dehydrogenase 2 for Targeting Acute Myeloid Leukemia: SAR, Structural Insights, and Biological Characterization” (J Med Chem, 2024)

Test system: MOLM-14
Experiment: Synergistic antiproliferative activity against human MOLM-14 cells assessed as combination index incubated for 72 hrs in presence of alimta by MTT assay

Structure (SMILES): Nc1nc(N)c(NC(=O)Nc2ccc(C(=O)N[C@@H](CCc3nnn[nH]3)C(=O)O)cc2)c(=O)[nH]1
- CI: 0.77 as printed
